## Antibody variant affinities, Ab-91 heavy chain, assay 2

All variants were tested on one target, the spike HR2 peptide PDVDLGDISGINAS (SARS-CoV-2).

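Phage display of a naive human antibody library on the peptide gave the parent. In library AAYL51, one, two or three CDR residues were substituted; doubles and triples were drawn at random. AlphaSeq pools MATa yeast showing the antibodies with MATalpha yeast showing the peptide. The frequency of each diploid, read from paired DNA barcodes, reflects how well the two displayed proteins bind. Each replicate has its own calibration line, from reference interactions of the BCL2 family. The assay was run in three technical replicates.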

Parent scFv Ab-91: VL joined to VH by the linker GGGGSGGGGSGGGGS. Changes lie in the heavy chain CDRs alone.
VL: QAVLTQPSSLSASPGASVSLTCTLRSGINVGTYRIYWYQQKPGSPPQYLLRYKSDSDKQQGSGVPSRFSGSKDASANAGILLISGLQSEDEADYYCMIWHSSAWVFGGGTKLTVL
VH: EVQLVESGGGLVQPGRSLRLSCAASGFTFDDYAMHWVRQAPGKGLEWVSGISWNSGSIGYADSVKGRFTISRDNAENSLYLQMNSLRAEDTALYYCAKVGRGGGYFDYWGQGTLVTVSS

The parent's heavy chain CDRs are GFTFDDYAMH, GISWNSGSIGYADSVK, VGRGGGYFDY; each variant's own CDRs replace them letter for letter. Every variant below is changed at F29 of the VH (sequential numbering). The Kd shown is the geometric mean over detected replicates; a lower Kd is a better binder. Where no diploid with the target was found in any replicate, the entry reads "nd": below detection, most likely a poor binder, though not proof of it. Three control strains display no target. For library AAYL51, 21% of the pairings with them gave a signal, with a median of 34 µM and one signal in twenty below 1.8 µM, so weak values seen in few replicates may be background.

GFTADDYAMH, GISWKSGSIGYPDSVK, VGRGGGYFDY: nd (0 of 3 replicates).
GFTYDDYAMH, GISWSSGSIGYADSVK, VGRGGGGFDY: 50 µM (1 of 3 replicates).
GFTEDDYAMH, GVSWNSSSIGYADSVK, VGRGGGYFDY: 14 µM (1 of 3 replicates).
GFTTDDYAMH, GISWNSGSIGYATSVK, VGRGGGYFDY: 110 nM (3 of 3 replicates).
HFTQDDYAMR, GISWNSGSIGYADSVK, VGRGGGYFDY: nd (0 of 3 replicates).
FFTSDDYAMH, GIKWNSGSIGYADSVK, VGRGGGYFDY: nd (0 of 3 replicates).
GFTRDDYAMH, GISWNSGSEGYADSVK, VGFGGGYFDY: nd (0 of 3 replicates).
AFTQDDYAMH, GISWNSGSISYADSVK, VGRGGGYFDY: 6.0 µM (1 of 3 replicates).
GFTPDDYAEH, GISWNSGSIGYADRVK, VGRGGGYFDY: 3.6 µM (1 of 3 replicates).
GFTPDDYAMH, GISWNSGSINYADSVK, VGRGGGYFDY: nd (0 of 3 replicates).
GFTDDDYAMH, GESWNSGSIGYADSRK, VGRGGGYFDY: nd (0 of 3 replicates).
GFTKDDYAMH, GIQWNSGSIGYADSVK, VGRGGGYFDE: 17 µM (1 of 3 replicates).
GFSADDYARH, GISWNSGSIGYADSVK, VGRGGGYFDY: 740 nM (1 of 3 replicates).
GVTMDDYAMH, GISHNSGSIGYADSVK, VGRGGGYFDY: nd (0 of 3 replicates).
GFTNDDQAMH, GISWNSGSIGYADSVK, VGRGGGYFDP: 43 µM (2 of 3 replicates).
GFRDDDYAMH, GISWNSGSIGYADSVK, VGRGVGYFDY: 96 µM (2 of 3 replicates).
GFTTDDYAMH, GISWNSGSIGYPDSVK, VGRGGGGFDY: 130 µM (3 of 3 replicates).
GFTGDDYAMH, GSSWNSGSIGYACSVK, VGRGGGYFDY: nd (0 of 3 replicates).
GFTYDDYAMH, GISWNDGSIGYADSVK, VQRGGGYFDY: 8.1 µM (1 of 3 replicates).
GFTNDDYAMH, GISWNSGSIGYAPSVK, VGRGGGYADY: nd (0 of 3 replicates).
GFTHDDYAMH, GISWNSGSIGYAGSHK, VGRGGGYFDY: nd (0 of 3 replicates).
GFTSDDYAMH, GIHWISGSIGYADSVK, VGRGGGYFDY: 210 µM (1 of 3 replicates).
GFTEDHYAMH, GISWNSGSIGYDDSVK, VGRGGGYFDY: 42 µM (1 of 3 replicates).
GFTNDDYAMH, GISWNSGSIGYADSVM, YGRGGGYFDY: 61 µM (2 of 3 replicates).
GFTMDDTAMH, GISWNSGSIGYADSVK, VGRGVGYFDY: 50 µM (3 of 3 replicates).
GFTYDDYAMH, GISWNSGSIDYADSVK, VGRQGGYFDY: 5.9 µM (2 of 3 replicates).
GFTDDDYAMH, GISWNSGSIGYADSVK, VGRELGYFDY: 150 µM (2 of 3 replicates).
GFTYDDYAMH, GISEWSGSIGYADSVK, VGRGGGYFDY: nd (0 of 3 replicates).
GFTCDDYAMH, GISWNSGSIGYAKSVK, VGRGGGYFVY: 36 µM (3 of 3 replicates).
GFTQDTYAMH, GISWNSGSITYADSVK, VGRGGGYFDY: nd (0 of 3 replicates).
DFTWDDYAMH, GFSWNSGSIGYADSVK, VGRGGGYFDY: nd (0 of 3 replicates).
GFTWRDYAMP, GISWNSGSIGYADSVK, VGRGGGYFDY: nd (0 of 3 replicates).

Excerpt, the final 5 entries:

{"CDR-H1": "GFTYDDYAMH", "CDR-H2": "GISEWSGSIGYADSVK", "CDR-H3": "VGRGGGYFDY", "apparent Kd": "nd", "detected": "0/3"}
{"CDR-H1": "GFTCDDYAMH", "CDR-H2": "GISWNSGSIGYAKSVK", "CDR-H3": "VGRGGGYFVY", "apparent Kd": "36 µM", "detected": "3/3"}
{"CDR-H1": "GFTQDTYAMH", "CDR-H2": "GISWNSGSITYADSVK", "CDR-H3": "VGRGGGYFDY", "apparent Kd": "nd", "detected": "0/3"}
{"CDR-H1": "DFTWDDYAMH", "CDR-H2": "GFSWNSGSIGYADSVK", "CDR-H3": "VGRGGGYFDY", "apparent Kd": "nd", "detected": "0/3"}
{"CDR-H1": "GFTWRDYAMP", "CDR-H2": "GISWNSGSIGYADSVK", "CDR-H3": "VGRGGGYFDY", "apparent Kd": "nd", "detected": "0/3"}

Source: Engelhart et al. 2022 (doi:10.1038/s41597-022-01779-4), MIT Lincoln Laboratory and A-Alpha Bio; data file from the FLAb repository.